Results taken from PMC6151561, “Rapid Identification of Dipeptidyl Peptidase-IV (DPP-IV) Inhibitory Peptides from Ruditapes philippinarum Hydrolysate” (Molecules : A Journal of Synthetic Chemistry and Natural …, 2017).

By UniProt entry, the sequences of proteins in these tests, tags left out. Where a name states a change or a piece, a line headed by the entry shows the natural chain unless it says otherwise.
UniProt P22411: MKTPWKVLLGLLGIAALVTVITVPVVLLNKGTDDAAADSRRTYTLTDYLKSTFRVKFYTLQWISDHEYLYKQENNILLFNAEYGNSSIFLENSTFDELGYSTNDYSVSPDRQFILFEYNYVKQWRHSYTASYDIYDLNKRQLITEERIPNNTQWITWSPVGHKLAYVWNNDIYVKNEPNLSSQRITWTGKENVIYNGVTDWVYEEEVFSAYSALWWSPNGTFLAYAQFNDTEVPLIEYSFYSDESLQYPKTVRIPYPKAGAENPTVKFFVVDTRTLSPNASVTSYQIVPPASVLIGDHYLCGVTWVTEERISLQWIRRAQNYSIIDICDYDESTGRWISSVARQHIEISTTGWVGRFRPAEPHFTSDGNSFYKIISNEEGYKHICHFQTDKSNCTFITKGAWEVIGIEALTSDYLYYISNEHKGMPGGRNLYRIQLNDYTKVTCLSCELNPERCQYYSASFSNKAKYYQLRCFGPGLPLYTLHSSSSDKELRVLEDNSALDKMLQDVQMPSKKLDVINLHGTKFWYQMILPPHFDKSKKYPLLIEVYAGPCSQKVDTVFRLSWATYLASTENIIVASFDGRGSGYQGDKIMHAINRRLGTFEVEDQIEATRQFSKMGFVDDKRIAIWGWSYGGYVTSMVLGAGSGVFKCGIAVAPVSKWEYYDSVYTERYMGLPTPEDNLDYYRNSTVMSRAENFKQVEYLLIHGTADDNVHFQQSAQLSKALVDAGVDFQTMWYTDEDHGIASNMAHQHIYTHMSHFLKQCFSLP

Target: T1, porcine DPP-IV (Sus scrofa, UniProt P22411)
T1 construct: purchased Sigma Chemical Co. (St. Louis, MO, USA)
Test: DPP-IV inhibitory activity assay (Gly-Pro-p-nitroanilide substrate, absorbance 405 nm)
Assay type: biochemical
Details: chemically synthesized peptides; diprotin A positive control
Description: Papain (from papaya, 8 × 10^5 units/g of protein), trypsin (from porcine pancreas, 2.5 × 10^5 units/g of protein), pepsin (from porcine gastric mucosa, 1 × 10^4 units/g of protein), flavourzyme (from […], 2 × 10^4 units/g of protein), and alcalase (from Bacillus licheniformis, 2 × 10^5 units/g of protein) were purchased from […] Biological Tech., Ltd. (Nanjing, China). […] (St. Louis, MO, USA). Mass spectrometry (MS)-grade water, acetonitrile (ACN), and trifluoroacetic acid (TFA) were purchased from Tedia Company Inc. (Fairfield, CT, USA). All other reagents were obtained from Sigma. All reagents were of analytical grade. DPP-IV inhibitory activity was measured as previously described by Zhang with minor modifications. Briefly, a 25 μL sample (diluted in 100 mM Tris-HCl buffer at pH 8.0) was mixed with 25 μL Gly-Pro-p-nitroanilide (1.6 mM) and pre-incubated at 37 °C for 10 min. […] The reaction was terminated by adding 100 μL of 1 M sodium acetate buffer at pH 4.0. The absorbance of each reaction was measured at 405 nm. Diprotin A ([…]) was used as a reference inhibitor. The percent DPP-IV inhibition was calculated according to the following equation: […] The DPP-IV inhibitory activity of these chemically synthesized peptides was determined as described in Section 3.3.

CC[C@H](C)[C@H](N)C(=O)N1CCC[C@H]1C(=O)N[C@H](C(=O)O)[C@@H](C)CC [diprotin A, Ile-Pro-Ile, reference compound]
IC50: 13.1 µM
